# Test results taken from patent US20190022152A1, “MICROBIOME RESPONSE TO AGENTS” (Yeda Research and Development Co., Ltd., priority 2014, published 2019).
# Tests used:
# fecal microbiota = details: fecal samples, 11 weeks consumption
# Procedure: (§1) Illumina sequence reads were mapped to the human microbiome reference genome database of the Human Microbiome Project [www(dot)hmpdacc(dot)org/HMREFG/^32], and to a gut microbial gene catalogue^33 using GEM mapper^58 with the following parameters: • -m 3 -s 0 -q offset-33 -gem-quality-threshold 26
# (§2) Microbial species abundance was measured as the fraction of reads that mapped to a single species in the database. An EM algorithm adapted from Pathoscope^59 was employed to determine the correct assignment of reads that mapped to more than one species. We considered only species for which at least 10% of the genome was covered (each coverage bin was 10,000-bp long) in at least one of the growth conditions (saccharin, water, or glucose). Reads mapped to the gut microbial gene catalogue were assigned a KEGG^34,35 ID according to the mapping available with the catalogue. Genes were subsequently mapped to KEGG pathways, and only pathways whose gene coverage was above 0.2 were included.
# [1] = tested on: fecal microbiota KEGG pathways; experiment: Shotgun metagenomic sequencing: KEGG pathway abundance (Table 2); design: species or system mice; details: In vivo (week 11/week 0)
# Procedure: as §1, §2
structure (smiles),measurement,setting,value
OC[C@H]1OC(O)[C@H](O)[C@@H](O)[C@@H]1O (some centres unmarked) [Glucose],Fold change (week 11/week 0) in relative species abundance,"fecal microbiota; Symbol BACT_22, Number 639",0.99
same,Fold change (week 11/week 0) in relative species abundance,"fecal microbiota; Symbol BACT_38, Number 780",1.03
same,Fold change (week 11/week 0) in relative species abundance,"fecal microbiota; Symbol BACT_142, Number 843",1.01
same,Fold change (week 11/week 0) in relative species abundance,"fecal microbiota; Symbol BACT_172, Number 768",1.44
same,Fold change (week 11/week 0) in relative species abundance,"fecal microbiota; Symbol BACT_194, Number 846",0.95
same,Fold change (week 11/week 0) in relative species abundance,"fecal microbiota; Symbol BACT_196, Number 395",1.04
same,Fold change (week 11/week 0) in relative species abundance,"fecal microbiota; Symbol BACT_371, Number 960",1.05
same,Fold change (week 11/week 0) in relative species abundance,"fecal microbiota; Symbol BACT_374, Number 805",1.34
same,Fold change (week 11/week 0) in relative species abundance,"fecal microbiota; Symbol BACT_392, Number 915",1.00
same,Fold change (week 11/week 0) in relative species abundance,"fecal microbiota; Symbol BACT_393, Number 932",1.30
same,Fold change (week 11/week 0) in relative species abundance,"fecal microbiota; Symbol BACT_397, Number 914",1.35
same,Fold change (week 11/week 0) in relative species abundance,"fecal microbiota; Symbol BACT_409, Number 845",1.44
same,Fold change (week 11/week 0) in relative species abundance,"fecal microbiota; Symbol BACT_418, Number 749",1.35
same,Fold change (week 11/week 0) in relative species abundance,"fecal microbiota; Symbol BACT_586, Number 849",1.33
same,Fold change (week 11/week 0) in relative species abundance,"fecal microbiota; Symbol BACT_632, Number 871",1.02
same,Fold change (week 11/week 0) in relative species abundance,"fecal microbiota; Symbol BACT_686, Number 1007",1.06
same,Fold change (week 11/week 0) in relative species abundance,"fecal microbiota; Symbol BACT_769, Number 610",0.96
same,Fold change (week 11/week 0) in relative species abundance,"fecal microbiota; Symbol BACT_931, Number 1088",0.98
same,Fold change (week 11/week 0) in relative species abundance,"fecal microbiota; Symbol BACT_1025, Number 751",0.98
same,Fold change (week 11/week 0) in relative species abundance,"fecal microbiota; Symbol BACT_1043, Number 948",1.27
same,Fold change (week 11/week 0) in relative species abundance,"fecal microbiota; Symbol BACT_1314, Number 1399",1.41
same,Fold change (week 11/week 0) in relative species abundance,"fecal microbiota; Symbol BACT_1315, Number 1395",1.09
same,Fold change (week 11/week 0) in relative species abundance,"fecal microbiota; Symbol BACT_1496, Number 1321",1.32
same,Fold change (week 11/week 0) in relative species abundance,"fecal microbiota; Symbol BACT_1596, Number 1502",1.39
same,Fold change (week 11/week 0) in relative species abundance,"fecal microbiota; Symbol BACT_3056, Number 5836",1.00
same,Fold change (week 11/week 0) in relative species abundance,"fecal microbiota; Symbol BACT_3092, Number 5793",1.26
same,Fold change (week 11/week 0) in relative species abundance,"fecal microbiota; Symbol EUKY_22, Number 1758",1.38
same,Fold change (week 11/week 0) in relative species abundance,"fecal microbiota; Symbol EUKY_141, Number 1875",1.36
same,Log_fold change: 2-Oxocarboxylic acid metabolism,[1],−0.04
same,Log_fold change: ABC transporters,[1],0.25
same,"Log_fold change: Alanine, aspartate and glutamate metabolism",[1],−0.04
same,Log_fold change: Amino sugar and nucleotide sugar metabolism,[1],0.00
same,Log_fold change: Aminoacyl-tRNA biosynthesis,[1],0.00
same,Log_fold change: Aminobenzoate degradation,[1],0.00
same,Log_fold change: Arginine and proline metabolism,[1],−0.01
same,Log_fold change: Ascorbate and aldarate metabolism,[1],−0.13
same,Log_fold change: Atrazine degradation,[1],−0.03
same,Log_fold change: Bacterial chemotaxis,[1],0.06
same,Log_fold change: Bacterial secretion system,[1],0.03
same,Log_fold change: Base excision repair,[1],0.09
same,Log_fold change: Benzoate degradation,[1],0.02
same,Log_fold change: Biosynthesis of amino acids,[1],−0.01
same,Log_fold change: Biosynthesis of siderophore group nonribosomal peptides,[1],−0.19
same,Log_fold change: Biosynthesis of unsaturated fatty acids,[1],0.12
same,Log_fold change: Biotin metabolism,[1],−0.08
same,Log_fold change: Bisphenol degradation,[1],0.03
same,Log_fold change: Butanoate metabolism,[1],0.01
same,Log_fold change: CS-Branched dibasic acid metabolism,[1],0.03
same,Log_fold change: Caprolactam degradation,[1],0.03
same,Log_fold change: Carbon fixation in photosynthetic organisms,[1],−0.03
same,Log_fold change: Carbon fixation pathways in prokaryotes,[1],−0.04
same,Log_fold change: Carbon metabolism,[1],0.02
same,Log_fold change: Cell cycle-Caulobacter,[1],0.05
same,Log_fold change: Chloroalkane and chloroalkene degradation,[1],0.10
same,Log_fold change: Citrate cycle (TCA cycle),[1],−0.07
same,Log_fold change: Cyanoamino acid metabolism,[1],−0.07
same,Log_fold change: Cysteine and methionine metabolism,[1],0.01
same,Log_fold change: D-Alanine metabolism,[1],0.25
same,Log_fold change: D-Arginine and D-ornithine metabolism,[1],0.28
same,Log_fold change: D-Glutamine and D-glutamate metabolism,[1],0.01
same,Log_fold change: DDT degradation,[1],0.34
same,Log_fold change: DNA replication,[1],0.02
same,Log_fold change: Dioxin degradation,[1],0.05
same,Log_fold change: Drug metabolism-other enzymes,[1],0.07
same,Log_fold change: Ether lipid metabolism,[1],−0.13
same,Log_fold change: Fatty acid biosynthesis,[1],−0.07
same,Log_fold change: Fatty acid degradation,[1],0.00
same,Log_fold change: Fatty acid metabolism,[1],−0.08
same,Log_fold change: Flagellar assembly,[1],0.06
same,Log_fold change: Folate biosynthesis,[1],−0.08
same,Log_fold change: Fructose and mannose metabolism,[1],0.03
same,Log_fold change: Galactose metabolism,[1],0.06
same,Log_fold change: Geraniol degradation,[1],−0.14
same,Log_fold change: Glutathione metabolism,[1],0.40
same,Log_fold change: Glycerolipid metabolism,[1],0.19
same,Log_fold change: Glycerophospholipid metabolism,[1],0.20
same,"Log_fold change: Glycine, serine and threonine metabolism",[1],0.03
same,Log_fold change: Glycolysis/Gluconeogenesis,[1],0.10
same,Log_fold change: Glycosaminoglycan degradation,[1],−0.01
same,Log_fold change: Glycosphingolipid biosynthesis-globoseries,[1],0.03
same,Log_fold change: Glyoxylate and dicarboxylate metabolism,[1],0.03
same,Log_fold change: Histidine metabolism,[1],−0.08
same,Log_fold change: Homologous recombination,[1],−0.03
same,Log_fold change: Inositol phosphate metabolism,[1],−0.06
same,Log_fold change: Limonene and pinene degradation,[1],−0.02
same,Log_fold change: Lipoicacid metabolism,[1],0.09
same,Log_fold change: Lipopolysaccharide biosynthesis,[1],−0.09
same,Log_fold change: Lysine biosynthesis,[1],0.02
same,Log_fold change: Lysine degradation,[1],0.06
same,Log_fold change: Methane metabolism,[1],0.05
same,Log_fold change: Mismatch repair,[1],0.03
same,Log_fold change: Naphthalene degradation,[1],0.00
same,Log_fold change: Nicotinate and nicotinamide metabolism,[1],0.00
same,Log_fold change: Nitrogen metabolism,[1],−0.04
same,Log_fold change: Nitrotoluene degradation,[1],0.21
same,Log_fold change: Novobiocin biosynthesis,[1],0.04
same,Log_fold change: Nucleotide excision repair,[1],0.00
same,Log_fold change: One carbon pool by folate,[1],−0.02
same,Log_fold change: Other glycan degradation,[1],−0.04
same,Log_fold change: Oxidative phosphorylation,[1],0.00
same,Log_fold change: Pantothenate and CoA biosynthesis,[1],0.00
same,Log_fold change: Penicillin and cephalosporin biosynthesis,[1],0.05
same,Log_fold change: Pentose and glucuronate interconversions,[1],−0.05
same,Log_fold change: Pentose phosphate pathway,[1],0.12
same,Log_fold change: Peptidoglycan biosynthesis,[1],0.05
same,Log_fold change: Phenylalanine metabolism,[1],0.04
same,"Log_fold change: Phenylalanine, tyrosine and tryptophan biosynthesis",[1],−0.05
same,Log_fold change: Phosphonate and phosphinate metabolism,[1],0.09
same,Log_fold change: Phosphotransferase system (PTS),[1],0.60
same,Log_fold change: Porphyrin and chlorophyll metabolism,[1],0.01
same,Log_fold change: Propanoate metabolism,[1],0.01
same,Log_fold change: Protein export,[1],−0.02
same,Log_fold change: Proximal tubule bicarbonate reclamation,[1],0.05
same,Log_fold change: Purine metabolism,[1],0.02
same,Log_fold change: Pyrimidine metabolism,[1],0.01
same,Log_fold change: Pyruvate metabolism,[1],0.06
same,Log_fold change: RNA degradation,[1],−0.01
same,Log_fold change: Riboflavin metabolism,[1],−0.04
same,Log_fold change: Ribosome,[1],−0.01
same,Log_fold change: Selenocompound metabolism,[1],0.09
same,Log_fold change: Sphingolipid metabolism,[1],−0.03
same,Log_fold change: Starch and sucrose metabolism,[1],0.00
same,Log_fold change: Streptomycin biosynthesis,[1],−0.04
same,Log_fold change: Styrene degradation,[1],0.31
same,Log_fold change: Sulfur metabolism,[1],0.12
same,Log_fold change: Sulfur relay system,[1],0.22
same,Log_fold change: Synthesis and degradation of ketone bodies,[1],0.42
same,Log_fold change: Taurine and hypotaurine metabolism,[1],−0.02
same,Log_fold change: Terpenoid backbone biosynthesis,[1],0.03
same,Log_fold change: Tetracycline biosynthesis,[1],0.36
same,Log_fold change: Thiamine metabolism,[1],0.04
same,"Log_fold change: Tropane, piperidine and pyridine alkaloid biosynthesis",[1],0.06
same,Log_fold change: Tryptophan metabolism,[1],0.13
same,Log_fold change: Two−component system,[1],0.02
same,Log_fold change: Tyrosine metabolism,[1],0.02
same,Log_fold change: Ubiquinone and other terpenoid-quinone biosynthesis,[1],0.09
same,"Log_fold change: Valine, leucine and isoleucine biosynthesis",[1],−0.05
same,"Log_fold change: Valine, leucine and isoleucine degradation",[1],−0.09
same,Log_fold change: Vibriocholerae pathogenic cycle,[1],−0.05
same,Log_fold change: Vitamin B6 metabolism,[1],−0.07
same,Log_fold change: Xylene degradation,[1],0.03
same,Log_fold change: beta-Alanine metabolism,[1],−0.02
same,Log_fold change: beta-Lactam resistance,[1],−0.01

# Read-outs that look alike come from different tables or passages of the source.
